For experiment [1], the target named is T1, mKOP receptor (Mus musculus, UniProt P33534). It is filed as cell-based.
The target of experiment [2] is T1, mKOP receptor. Put plainly: biochemical.

The chains behind the UniProt entries cited, without tags or fusion partners. Where a name states a change or a piece, a line headed by the entry shows the natural chain unless it says otherwise.
UniProt P33534: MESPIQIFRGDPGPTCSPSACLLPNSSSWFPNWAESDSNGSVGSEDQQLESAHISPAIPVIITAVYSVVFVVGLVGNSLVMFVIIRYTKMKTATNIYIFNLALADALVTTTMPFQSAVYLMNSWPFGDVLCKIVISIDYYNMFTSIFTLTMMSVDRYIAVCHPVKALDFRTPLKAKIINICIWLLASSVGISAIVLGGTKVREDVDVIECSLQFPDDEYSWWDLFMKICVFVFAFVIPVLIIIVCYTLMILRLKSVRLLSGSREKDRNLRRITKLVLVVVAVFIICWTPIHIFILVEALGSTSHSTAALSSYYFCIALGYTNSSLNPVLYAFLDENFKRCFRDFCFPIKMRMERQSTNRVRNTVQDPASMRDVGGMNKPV

One may read the EC50 as the concentration giving half of the maximal effect. Higher therefore signals a less potent agent. `CC(C)=CCN1CCC2(C)c3cc(O)ccc3CC1C2C` (stereo not drawn) [Pentazocine, pentazocine]: the “Internalization pEC50” value in experiment [1] is reported as “No internalization”. In addition, the concentration giving a half-maximal response (EC50) in experiment [2] ([35S]GTPγS binding EC50, mean) is 62 nM; in experiment [2] ([35S]GTPγS binding pEC50), 61.7 nM.

The values above are taken from PMC4532598 (European journal of pharmacology, 2015).
